The values below come from ChEMBL document CHEMBL4311931, “Controlling cellular distribution of drugs with permeability modifying moieties” (Medchemcomm, 2019).

Sequences of proteins named here, by UniProt entry; tags and fusion partners are left off. A change or cut given only in a name is not applied to a line headed by its entry.
UniProt Q9Y5N1: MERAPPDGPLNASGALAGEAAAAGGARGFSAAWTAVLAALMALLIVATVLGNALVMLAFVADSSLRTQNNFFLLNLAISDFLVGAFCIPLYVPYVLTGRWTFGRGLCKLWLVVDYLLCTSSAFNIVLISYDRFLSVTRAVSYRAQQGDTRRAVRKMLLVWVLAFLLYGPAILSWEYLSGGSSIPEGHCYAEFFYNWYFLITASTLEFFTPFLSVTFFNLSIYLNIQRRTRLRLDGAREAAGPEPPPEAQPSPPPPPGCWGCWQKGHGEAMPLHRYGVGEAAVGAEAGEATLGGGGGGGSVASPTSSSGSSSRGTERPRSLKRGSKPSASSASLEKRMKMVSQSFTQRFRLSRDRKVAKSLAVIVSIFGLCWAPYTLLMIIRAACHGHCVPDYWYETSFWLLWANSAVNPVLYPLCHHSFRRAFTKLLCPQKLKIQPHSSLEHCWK

In test [1] the target is T1, Histamine H3 receptor (Homo sapiens, UniProt Q9Y5N1). Nature of the test: Antagonist activity at human H3 receptor expressed in CHOK1 cells incubated for 10 mins by HTRF assay relative to parent compound. The test is classed as cell-based. (In TR-FRET formats the signal depends on donor and acceptor labels being close together.)
In test [2] the target is T1, Histamine H3 receptor. Put plainly: Displacement of [3H]Nalpha-methylhistamine from recombinant human histamine H3 receptor after 60 mins by scintillation counting method relative to parent compound. (Displacement assays read how much labelled ligand stays bound in the presence of the test substance.)

On to `Cc1nn(CCOCCOCCNC(=O)CS(=O)(=O)O)cc1-c1ccc2cc(CCN3CCC[C@H]3C)ccc2n1`, for which the fold change (FC) in test [1] amounted to 1; in test [2], 12.4.
Turning to `Cc1nn(CCOCCOCCNC(=O)CCCCCC2(C)C(/C=C/C=C/C=C3/N(CCCS(=O)(=O)O)c4ccc(S(=O)(=O)O)cc4C3(C)C)=[N+](CCCS(=O)(=O)[O-])c3ccc(S(=O)(=O)O)cc32)cc1-c1ccc2cc(CCN3CCC[C@H]3C)ccc2n1` (stereo not given in full), the fold change (FC) in test [1] is 0.3; in test [2], 4.2.
`Cc1nn(CCOCCOCCNC(=O)OC(C)(C)C)cc1-c1ccc2cc(CCN3CCC[C@H]3C)ccc2n1`: the fold change (FC) is 0.95 in test [1] and 33 in test [2].
`Cc1nn(CCOCCOCCNC(=O)C2C(C(=O)O)C(C(=O)O)C2C(=O)O)cc1-c1ccc2cc(CCN3CCC[C@H]3C)ccc2n1` (stereo not given in full): the fold change (FC) in test [1] was determined as 3.5; in test [2] it was 56.
As to `Cc1nn(CCOCCOCCN)cc1-c1ccc2cc(CCN3CCC[C@H]3C)ccc2n1`, the values for the fold change (FC) in test [1] and in test [2] were 0.02 and 1.6, respectively.
